This note sets out measurements from patent publication US20090209606A1 (priority 2004, published 2009).

For test [1], the system named is SU-DHL-1 cells. As to the kind of experiment: Western blot / immunoblot of apoptotic proteins. Format: cell-based. The following applies: SU-DHL-1, 20 hours. (In general: A western blot detects proteins with antibodies after separation by electrophoresis.)
Test [2] has as its system SU-DHL-1 cells. Briefly: Wash-out experiments: intracellular ATP and adenylate kinase release. The class given is cell-based. The following applies: 30 to 120 minutes exposure, ATP and adenylate kinase at 48 and 72 hours.

On to `NP(=O)(O)N(CCCl)CCCl`, for which, in test [1], the “expression of total p53” value is given as “no change” and the “up-regulation of Ser-15-phosphorylated p53” value is “minor up-regulation”. In addition, the “loss of viability after brief exposure and wash-out” value in test [2] is listed as “minimal loss of viability”.
